pIC50: −log10 of the molar value.
Target: cAMP and cAMP-inhibited cGMP 3',5'-cyclic phosphodiesterase 10A (Homo sapiens, UniProt Q9Y233)

Amino acid sequences for entries named in this document (tags omitted). A change or cut given only in a name is not applied to a line headed by its entry.
UniProt Q9Y233: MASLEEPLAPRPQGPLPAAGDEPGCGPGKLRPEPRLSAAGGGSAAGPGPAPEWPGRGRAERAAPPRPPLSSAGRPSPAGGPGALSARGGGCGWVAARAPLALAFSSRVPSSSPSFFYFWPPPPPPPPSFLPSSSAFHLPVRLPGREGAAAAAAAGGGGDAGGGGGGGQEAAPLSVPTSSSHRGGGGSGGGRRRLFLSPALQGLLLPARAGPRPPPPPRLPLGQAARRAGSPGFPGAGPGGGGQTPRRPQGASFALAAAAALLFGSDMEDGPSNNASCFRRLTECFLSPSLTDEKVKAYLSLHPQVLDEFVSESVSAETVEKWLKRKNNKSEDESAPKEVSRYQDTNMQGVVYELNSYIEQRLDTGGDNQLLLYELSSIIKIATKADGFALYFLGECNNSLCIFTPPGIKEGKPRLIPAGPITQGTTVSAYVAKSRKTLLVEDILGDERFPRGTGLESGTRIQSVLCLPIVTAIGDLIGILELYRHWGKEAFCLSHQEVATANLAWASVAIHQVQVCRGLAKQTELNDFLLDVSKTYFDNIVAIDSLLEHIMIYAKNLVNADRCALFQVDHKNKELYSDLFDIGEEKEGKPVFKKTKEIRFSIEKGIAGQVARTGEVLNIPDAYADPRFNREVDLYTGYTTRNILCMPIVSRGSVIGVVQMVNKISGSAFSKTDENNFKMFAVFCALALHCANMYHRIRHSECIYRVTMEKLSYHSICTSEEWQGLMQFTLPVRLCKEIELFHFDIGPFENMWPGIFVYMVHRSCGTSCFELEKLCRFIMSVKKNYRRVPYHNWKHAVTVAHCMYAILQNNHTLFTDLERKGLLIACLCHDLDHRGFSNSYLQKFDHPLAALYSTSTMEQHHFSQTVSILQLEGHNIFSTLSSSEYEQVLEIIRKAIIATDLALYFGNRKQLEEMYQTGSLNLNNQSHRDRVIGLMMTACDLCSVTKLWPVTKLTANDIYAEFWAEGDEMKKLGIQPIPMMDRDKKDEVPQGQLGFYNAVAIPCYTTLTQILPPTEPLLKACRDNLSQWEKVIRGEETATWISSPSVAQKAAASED

Structure (SMILES) | pIC50
CCNC(=O)c1ccc2nc(C)c3nnc(-c4ccccc4Cl)n3c2c1 | 7.68
CCCCOc1ccc(Cl)c(-c2nnc3c(C)nc4ccc(CN5CCOCC5)cc4n23)c1 | 5.79

— ChEMBL document CHEMBL5729263, “Treatment of tachycardia” (2022)
